The results in this text go back to patent publication US20230321123A1, “INHIBITORS OF PSEUDOMONAS AERUGINOSA VIRULENCE FACTOR LasB” (Helmholtz-Zentrum Für Infektionsforschung GmbH, priority 2020, published 2023).

Amino acid sequences for entries named in this document (tags omitted). Residues count along the entry.
UniProt Q02RJ6, 198-498: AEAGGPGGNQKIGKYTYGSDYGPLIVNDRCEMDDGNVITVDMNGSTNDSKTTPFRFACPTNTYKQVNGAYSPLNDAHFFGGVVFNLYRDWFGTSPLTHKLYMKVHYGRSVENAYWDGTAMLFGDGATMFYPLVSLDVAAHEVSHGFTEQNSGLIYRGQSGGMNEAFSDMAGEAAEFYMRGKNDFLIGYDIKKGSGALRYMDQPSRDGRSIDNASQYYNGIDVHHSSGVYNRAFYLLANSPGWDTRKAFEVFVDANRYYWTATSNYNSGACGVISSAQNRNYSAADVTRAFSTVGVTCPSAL

The target in this assay is LasB (Pseudomonas aeruginosa, UniProt Q02RJ6). Nature of the assay: biochemical. The conditions noted are these: IC50 against LasB. More on the design: species or system P. aeruginosa.

`COc1ccc(NC(=O)C(S)CC(C)C)cc1OC` (stereo not shown) [Example 36] gave an IC50 of 730 ± 100 nM.
